Data as given in patent US6534289B1, “Nucleic acids encoding mGLuR/CaR chimera” (NPS Pharmaceuticals, Inc., priority 1995, dated 2003).

Protein sequences, listed by entry. Tags and fused reporters are not part of them. Lines headed by an entry give the natural chain unless they say otherwise; changes in a name come on top. Chains listed by the source or under a name are the forms on record and can include a tag or linker.
ratCH3 (UniProt P23385+P41180), UniProt P23385+P41180, fused: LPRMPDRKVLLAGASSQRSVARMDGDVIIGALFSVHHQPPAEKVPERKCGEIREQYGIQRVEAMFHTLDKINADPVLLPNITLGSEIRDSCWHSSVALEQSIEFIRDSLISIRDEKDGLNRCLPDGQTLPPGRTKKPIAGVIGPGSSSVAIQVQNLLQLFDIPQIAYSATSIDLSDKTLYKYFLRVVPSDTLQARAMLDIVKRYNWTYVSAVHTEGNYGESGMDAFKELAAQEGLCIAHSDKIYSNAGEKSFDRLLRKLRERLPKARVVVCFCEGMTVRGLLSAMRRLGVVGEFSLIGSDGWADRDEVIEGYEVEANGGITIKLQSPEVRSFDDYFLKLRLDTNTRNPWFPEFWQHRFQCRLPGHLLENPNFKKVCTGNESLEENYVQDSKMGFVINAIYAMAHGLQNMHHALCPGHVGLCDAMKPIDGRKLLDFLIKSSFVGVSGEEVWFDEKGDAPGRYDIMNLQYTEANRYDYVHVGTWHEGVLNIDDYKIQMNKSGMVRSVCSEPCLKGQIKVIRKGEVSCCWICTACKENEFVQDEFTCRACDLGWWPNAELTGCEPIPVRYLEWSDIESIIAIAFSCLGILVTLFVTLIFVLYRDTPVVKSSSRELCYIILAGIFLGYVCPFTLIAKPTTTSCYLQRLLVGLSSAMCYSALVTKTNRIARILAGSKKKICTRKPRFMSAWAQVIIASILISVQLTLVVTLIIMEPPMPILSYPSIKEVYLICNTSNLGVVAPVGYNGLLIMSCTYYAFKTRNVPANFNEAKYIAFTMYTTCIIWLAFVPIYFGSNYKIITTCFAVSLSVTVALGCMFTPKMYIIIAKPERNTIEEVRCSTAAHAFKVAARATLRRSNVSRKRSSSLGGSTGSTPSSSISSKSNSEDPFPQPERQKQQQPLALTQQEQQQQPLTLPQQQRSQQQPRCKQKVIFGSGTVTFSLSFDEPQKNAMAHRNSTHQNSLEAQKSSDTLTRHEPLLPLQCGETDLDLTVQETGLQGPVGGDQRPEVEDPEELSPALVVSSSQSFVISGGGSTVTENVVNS
mGluR1/CaR (UniProt P23385+P41180), UniProt P23385+P41180, fused: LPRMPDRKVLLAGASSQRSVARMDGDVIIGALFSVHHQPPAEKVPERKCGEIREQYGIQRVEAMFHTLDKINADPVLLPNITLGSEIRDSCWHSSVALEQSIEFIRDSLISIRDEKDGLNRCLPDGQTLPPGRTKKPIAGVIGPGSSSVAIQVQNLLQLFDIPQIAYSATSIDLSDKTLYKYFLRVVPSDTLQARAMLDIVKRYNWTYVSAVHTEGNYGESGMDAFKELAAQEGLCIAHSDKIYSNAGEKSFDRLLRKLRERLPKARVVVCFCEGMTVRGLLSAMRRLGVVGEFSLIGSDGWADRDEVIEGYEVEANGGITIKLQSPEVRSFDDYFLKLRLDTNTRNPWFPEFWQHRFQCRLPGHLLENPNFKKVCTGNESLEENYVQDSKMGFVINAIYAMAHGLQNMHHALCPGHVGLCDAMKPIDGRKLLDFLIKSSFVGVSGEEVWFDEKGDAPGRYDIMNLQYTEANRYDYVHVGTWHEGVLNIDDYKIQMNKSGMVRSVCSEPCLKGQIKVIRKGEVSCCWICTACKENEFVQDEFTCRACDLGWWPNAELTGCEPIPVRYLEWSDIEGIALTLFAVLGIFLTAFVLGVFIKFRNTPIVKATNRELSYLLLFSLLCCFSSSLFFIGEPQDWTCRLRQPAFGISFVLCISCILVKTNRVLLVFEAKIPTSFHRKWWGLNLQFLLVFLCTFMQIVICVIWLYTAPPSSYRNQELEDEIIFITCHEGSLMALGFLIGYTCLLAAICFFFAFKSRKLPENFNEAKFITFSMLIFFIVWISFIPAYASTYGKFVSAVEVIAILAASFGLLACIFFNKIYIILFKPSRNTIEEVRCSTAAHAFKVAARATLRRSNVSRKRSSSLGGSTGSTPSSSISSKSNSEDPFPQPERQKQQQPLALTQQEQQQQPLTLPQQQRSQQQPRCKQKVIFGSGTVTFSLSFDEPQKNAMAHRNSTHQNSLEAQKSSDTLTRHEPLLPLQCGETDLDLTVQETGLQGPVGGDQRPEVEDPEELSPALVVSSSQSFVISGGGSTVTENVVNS
UniProt P23385: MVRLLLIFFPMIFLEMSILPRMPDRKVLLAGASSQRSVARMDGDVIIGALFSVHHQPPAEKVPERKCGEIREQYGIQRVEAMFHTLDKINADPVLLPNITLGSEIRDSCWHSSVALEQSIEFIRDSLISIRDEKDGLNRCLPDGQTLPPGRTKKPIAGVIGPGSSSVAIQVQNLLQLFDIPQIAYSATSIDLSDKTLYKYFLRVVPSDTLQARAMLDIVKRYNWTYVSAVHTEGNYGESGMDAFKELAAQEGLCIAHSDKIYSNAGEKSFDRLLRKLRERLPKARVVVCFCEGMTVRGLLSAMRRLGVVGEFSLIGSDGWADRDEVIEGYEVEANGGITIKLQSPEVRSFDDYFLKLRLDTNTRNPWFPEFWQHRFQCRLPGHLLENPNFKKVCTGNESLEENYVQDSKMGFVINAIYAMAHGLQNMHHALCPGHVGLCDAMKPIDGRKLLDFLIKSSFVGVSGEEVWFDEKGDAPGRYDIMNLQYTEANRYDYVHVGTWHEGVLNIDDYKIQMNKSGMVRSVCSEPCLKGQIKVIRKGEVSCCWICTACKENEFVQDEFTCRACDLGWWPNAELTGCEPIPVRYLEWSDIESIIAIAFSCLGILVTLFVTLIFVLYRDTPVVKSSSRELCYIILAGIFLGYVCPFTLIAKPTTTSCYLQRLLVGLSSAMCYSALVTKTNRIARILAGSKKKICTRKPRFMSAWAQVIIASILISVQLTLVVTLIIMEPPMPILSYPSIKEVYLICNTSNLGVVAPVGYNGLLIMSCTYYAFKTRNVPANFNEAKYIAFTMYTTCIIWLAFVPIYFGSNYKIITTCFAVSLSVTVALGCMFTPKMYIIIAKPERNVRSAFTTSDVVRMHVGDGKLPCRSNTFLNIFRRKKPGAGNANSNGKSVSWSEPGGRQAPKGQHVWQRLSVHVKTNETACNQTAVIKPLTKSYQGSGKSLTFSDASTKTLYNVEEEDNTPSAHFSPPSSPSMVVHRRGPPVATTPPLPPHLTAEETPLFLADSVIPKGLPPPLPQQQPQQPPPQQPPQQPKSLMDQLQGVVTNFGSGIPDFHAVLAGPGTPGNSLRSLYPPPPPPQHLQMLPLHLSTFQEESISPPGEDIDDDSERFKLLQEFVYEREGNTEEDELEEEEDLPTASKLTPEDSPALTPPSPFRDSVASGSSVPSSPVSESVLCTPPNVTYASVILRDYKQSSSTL
UniProt P41180: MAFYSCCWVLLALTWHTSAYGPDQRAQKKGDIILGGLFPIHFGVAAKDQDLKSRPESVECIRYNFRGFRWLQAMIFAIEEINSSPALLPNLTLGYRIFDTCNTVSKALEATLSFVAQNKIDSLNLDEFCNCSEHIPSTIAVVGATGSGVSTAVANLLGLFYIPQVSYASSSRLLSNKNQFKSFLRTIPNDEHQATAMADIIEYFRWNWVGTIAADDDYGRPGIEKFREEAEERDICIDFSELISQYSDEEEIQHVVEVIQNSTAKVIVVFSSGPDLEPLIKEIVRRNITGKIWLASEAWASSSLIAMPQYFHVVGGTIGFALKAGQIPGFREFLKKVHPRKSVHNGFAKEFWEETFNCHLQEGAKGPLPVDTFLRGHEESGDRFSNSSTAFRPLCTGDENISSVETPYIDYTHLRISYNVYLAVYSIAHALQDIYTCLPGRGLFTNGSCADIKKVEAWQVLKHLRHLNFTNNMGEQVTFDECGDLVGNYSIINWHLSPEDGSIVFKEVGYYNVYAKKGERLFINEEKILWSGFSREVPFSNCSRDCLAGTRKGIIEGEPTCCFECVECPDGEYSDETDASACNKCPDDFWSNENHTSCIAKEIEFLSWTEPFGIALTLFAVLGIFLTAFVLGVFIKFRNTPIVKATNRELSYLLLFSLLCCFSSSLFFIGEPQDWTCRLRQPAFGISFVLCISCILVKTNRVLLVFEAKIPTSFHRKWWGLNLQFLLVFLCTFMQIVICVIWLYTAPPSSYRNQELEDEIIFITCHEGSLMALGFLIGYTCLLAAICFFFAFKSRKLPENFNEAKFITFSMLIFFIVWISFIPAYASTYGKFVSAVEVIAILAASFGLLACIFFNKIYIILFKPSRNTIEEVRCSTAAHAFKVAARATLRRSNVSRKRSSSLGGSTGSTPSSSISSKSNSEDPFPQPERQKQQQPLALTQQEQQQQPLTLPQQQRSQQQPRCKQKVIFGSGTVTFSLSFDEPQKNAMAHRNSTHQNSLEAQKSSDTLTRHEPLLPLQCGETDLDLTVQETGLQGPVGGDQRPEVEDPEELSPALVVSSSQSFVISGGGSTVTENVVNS

Legend:
ratCH3 = target: T1, ratCH3 (UniProt P23385+P41180); assay: Xenopus oocyte voltage clamp, Cl− currents, ratCH3 chimera; assay type: cell-based, rat mGluR1 / human calcium receptor; settings: Xenopus oocytes injected with ratCH3 RNA, FIG. 8C
T1 construct: expressed in transfected cells; host or cells: Xenopus laevis oocytes injected with in vitro transcribed RNA

mGluR1/CaR = target: T2, mGluR1/CaR (UniProt P23385+P41180); assay: Xenopus oocyte voltage clamp, Cl− currents, mGluR1/CaR chimera; assay type: cell-based, rat mGluR1 / human calcium receptor; settings: FIG. 6
T2 construct: expressed in transfected cells; host or cells: Xenopus laevis oocytes injected with in vitro transcribed RNA

N[C@@H](CCC(=O)O)C(=O)O [l-glutamate]
Cl− current (ratCH3): elicits oscillatory increases in Cl− current | activation of mGluR1/CaR as measured by Cl− currents generated in response to the release of intracellular Ca^2+ (mGluR1/CaR): activation
